Test results from patent US10167295B2 (priority 2013, dated 2019).
pKi: −log10 of the molar value. Like-named read-outs stand apart in the source and are kept apart here.

Experiments:
MOR [1] = target: T1, MOR (Homo sapiens, UniProt P35372); assay: Radioligand competition binding, Ki (PDSP); conditions: read-out: MOR Ki
Sprague-Dawley rats = assay: Randall-Selitto paw-withdrawal assay, mechanical nociceptive threshold; conditions: for Nociceptive testing (analgesia / anti-analgesia): FIG. 17
MOR [2] = target: T1, MOR; assay: Primary binding (PDSP); conditions: for MOR mean % inhibition: 10 μM, N = 4 determinations, negative = stimulation of binding; for MOR: Table 7, rounded values of Table 4
[3] = Cheng-Prusoff from best fit IC50

## CN(C(=O)Cc1ccccc1)[C@H](CN1CCCC1)c1ccccc1 [listing 1 of 2 here]
MOR [1]; [3]
  pKi: 5.76
MOR [1]; Table 7, values of Table 5
  pKi: 5.75

## Cc1cccc(CC(=O)N(C)[C@@H](CN2CCCCC2)c2ccccc2)c1
Sprague-Dawley rats
  Nociceptive testing (analgesia / anti-analgesia): significant analgesia without significant anti-analgesia
MOR [2]
  MOR mean % inhibition: 29.6%
  MOR: 30

## CN(C(=O)C1CCCN1Cc1ccccc1)[C@H](CN1CCCC1)c1ccccc1 (stereo partly shown)
MOR [1]; [3]
  pKi: 5.71
MOR [2]
  MOR mean % inhibition: 66.5%
  MOR: 67

## CN(C(=O)Cc1cccc2occc12)[C@@H](CN1CCCC1)c1ccccc1
MOR [2]
  MOR mean % inhibition: 25.5%
  MOR: 26

## CN(C(=O)Cc1ccc(Cl)c(Cl)c1)[C@H](CN1CCCCC1)c1ccccc1
MOR [1]; [3]
  pKi: 6.81
MOR [1]; Table 7, values of Table 5
  pKi: 6.81
MOR [2]
  MOR mean % inhibition: 92.9%
  MOR: 93

## Cc1cccc(CC(=O)N(C)[C@H](CN2CCCCC2)c2ccccc2)c1
MOR [1]; [3]
  pKi: 5.61
MOR [1]; Table 7, values of Table 5
  pKi: 5.61
MOR [2]
  MOR mean % inhibition: 53.8%
  MOR: 54

## CN(C(=O)Cc1ccc2occc2c1)[C@@H](CN1CCCCC1)c1ccccc1
Sprague-Dawley rats
  Nociceptive testing (analgesia / anti-analgesia): almost no analgesia but a typical anti-analgesic effect
Sprague-Dawley rats; rats (male)
  onset of anti-analgesia after administration: about 90 minutes
MOR [2]
  MOR mean % inhibition: 29.8%
  MOR: 30

## O=C(Cc1ccc(Cl)c(Cl)c1)N1CCCC[C@H]1CN1CCCC1
MOR [1]; [3]
  pKi: 5.60
MOR [1]; Table 7, values of Table 5
  pKi: 5.60
MOR [2]
  MOR mean % inhibition: 70%
  MOR: 70

## CN(C(=O)Cc1cccc2occc12)[C@@H](CN1CCCCC1)c1ccccc1
MOR [2]
  MOR mean % inhibition: 17.2%
  MOR: 17

## CN(C(=O)C1CCCN1Cc1ccccc1)[C@@H](CN1CCCC1)c1ccccc1 (stereo partly shown)
MOR [2]
  MOR mean % inhibition: 31.9%
  MOR: 32

## CN(C(=O)Cc1ccc(Cl)c(Cl)c1)[C@@H](CN1CCCCC1)c1ccccc1
MOR [2]
  MOR mean % inhibition: 44.6%
  MOR: 45

## CN(C(=O)Cc1ccccc1)[C@H](CN1CCCC1)c1ccccc1 [listing 2 of 2 here]
MOR [2]
  MOR mean % inhibition: 69.2%
  MOR: 69

## Cc1cccc(CC(=O)N(C)[C@H](CN2CCCC2)c2ccccc2)c1
MOR [1]; [3]
  pKi: 6.22
MOR [1]; Table 7, values of Table 5
  pKi: 6.22
MOR [2]
  MOR mean % inhibition: 85.3%
  MOR: 85

## CN(C(=O)Cc1ccccc1)[C@@H](CN1CCCC1)c1ccccc1
MOR [2]
  MOR mean % inhibition: 4.2%
  MOR: 4

## CN(C(=O)Cc1cccc2occc12)[C@H](CN1CCCCC1)c1ccccc1
MOR [1]; [3]
  pKi: 5.66
MOR [1]; Table 7, values of Table 5
  pKi: 5.66
MOR [2]
  MOR mean % inhibition: 55.6%
  MOR: 56

## CN(C(=O)Cc1ccc2occc2c1)[C@H](CN1CCCCC1)c1ccccc1
MOR [1]; [3]
  pKi: 5.69
MOR [1]; Table 7, values of Table 5
  pKi: 5.69
MOR [2]
  MOR mean % inhibition: 69.9%
  MOR: 70

## CN(C(=O)Cc1cccc2occc12)[C@H](CN1CCCC1)c1ccccc1
MOR [1]; [3]
  pKi: 6.47
MOR [1]; Table 7, values of Table 5
  pKi: 6.47
MOR [2]
  MOR mean % inhibition: 87.7%
  MOR: 88
